Source: ChEMBL document CHEMBL1125016

The chains behind the UniProt entries cited, without tags or fusion partners.
UniProt P41144, whole entry: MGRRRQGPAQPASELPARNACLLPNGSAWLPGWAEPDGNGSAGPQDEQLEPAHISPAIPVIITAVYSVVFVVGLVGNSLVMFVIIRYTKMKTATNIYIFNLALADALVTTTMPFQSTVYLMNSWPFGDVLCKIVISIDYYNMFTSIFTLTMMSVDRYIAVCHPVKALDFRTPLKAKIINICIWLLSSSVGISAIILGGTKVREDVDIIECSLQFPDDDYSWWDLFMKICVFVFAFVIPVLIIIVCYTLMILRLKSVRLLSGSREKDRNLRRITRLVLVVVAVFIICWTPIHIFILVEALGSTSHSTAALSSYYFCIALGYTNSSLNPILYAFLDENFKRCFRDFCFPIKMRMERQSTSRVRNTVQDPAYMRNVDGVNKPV

Tests used:
[1] = target: Kappa-type opioid receptor (Cavia porcellus) (UniProt P41144); assay: Binding affinity against opioid receptor kappa 1 using [3H]U-69593 as a radioligand
[2] = target: Kappa-type opioid receptor (Cavia porcellus) (UniProt P41144); assay: Binding affinity against opioid receptor kappa 1 using with [3H]bremazocine as radioligand

| Structure (SMILES) | Control [1] | Control [2] |
| --- | --- | --- |
| CN(C(=O)CCCOc1ccc(Cl)cc1Cl)[C@H]1CCCC[C@H]1N1CCCC1 | 43.4% | 88.2% |
| CN(C(=O)COc1ccc(Cl)c(Cl)c1)[C@@H]1CCCC[C@@H]1N1CCCC1 | 9.53% | 64.7% |
| COc1ccccc1CC(=O)N(C)[C@@H]1CCCC[C@@H]1N1CCCC1 | 71.2% | 110% |
| CN(C(=O)C1(c2ccccc2)CC1)[C@H]1CCCC[C@H]1N1CCCC1 | 86.3% | 107% |
| COc1cccc(CC(=O)N(C)[C@@H]2CCCC[C@@H]2N2CCCC2)c1 | 65% | 107% |
| CN(C(=O)COc1ccc(Cl)cc1Cl)[C@@H]1CCCC[C@@H]1N1CCCC1 | 35.2% | 95.8% |
| CN(C(=O)COc1cc(Cl)c(Cl)cc1Cl)[C@@H]1CCCC[C@@H]1N1CCCC1 | 6.94% | 45.6% |
| COc1cc(CC(=O)N(C)[C@@H]2CCCC[C@@H]2N2CCCC2)cc(OC)c1OC | 75.8% | 107% |
